Source: publication PMC3389199 (Bioorganic & medicinal chemistry letters, 2012)

Molecular target: T1, hDAGLα (Homo sapiens, UniProt Q9Y4D2)
T1 sequence (Q9Y4D2 1-1042): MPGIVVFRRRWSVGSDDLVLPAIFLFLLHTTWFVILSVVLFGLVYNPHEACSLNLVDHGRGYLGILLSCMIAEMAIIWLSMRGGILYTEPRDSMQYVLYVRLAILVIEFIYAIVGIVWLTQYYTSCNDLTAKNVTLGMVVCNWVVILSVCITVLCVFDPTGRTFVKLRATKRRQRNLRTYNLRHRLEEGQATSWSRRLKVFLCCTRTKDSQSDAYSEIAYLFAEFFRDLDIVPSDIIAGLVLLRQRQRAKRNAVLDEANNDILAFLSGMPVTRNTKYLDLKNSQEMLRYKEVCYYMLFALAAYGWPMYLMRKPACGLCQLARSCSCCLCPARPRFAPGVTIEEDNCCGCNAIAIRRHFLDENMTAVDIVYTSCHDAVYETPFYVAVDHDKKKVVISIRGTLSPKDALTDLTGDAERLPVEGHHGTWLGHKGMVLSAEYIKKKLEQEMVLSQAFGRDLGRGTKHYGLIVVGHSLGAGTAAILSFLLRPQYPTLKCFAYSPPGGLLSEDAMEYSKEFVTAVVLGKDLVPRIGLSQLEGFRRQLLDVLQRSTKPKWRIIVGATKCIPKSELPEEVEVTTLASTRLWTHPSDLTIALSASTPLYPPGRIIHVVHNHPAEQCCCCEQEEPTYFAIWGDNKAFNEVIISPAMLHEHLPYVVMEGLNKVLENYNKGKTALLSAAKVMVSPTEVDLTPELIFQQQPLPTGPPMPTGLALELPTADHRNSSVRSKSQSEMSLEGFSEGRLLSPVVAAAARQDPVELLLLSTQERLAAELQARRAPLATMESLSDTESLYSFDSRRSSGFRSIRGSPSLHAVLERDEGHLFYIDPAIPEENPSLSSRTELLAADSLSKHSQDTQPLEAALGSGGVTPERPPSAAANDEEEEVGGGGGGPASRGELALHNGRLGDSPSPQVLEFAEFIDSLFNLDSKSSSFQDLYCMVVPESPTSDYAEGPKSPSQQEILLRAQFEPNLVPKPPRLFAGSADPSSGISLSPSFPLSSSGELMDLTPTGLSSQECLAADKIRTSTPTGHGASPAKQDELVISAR
Experiment: Radio-TLC assay of hDAGLα inhibition with [14C]SAG substrate
Assay type: biochemical

| Compound | selectivity for diacylglycerol lipase over monoacylglycerol lipase and fatty acid amide hydrolase enzymes (in words) |
| --- | --- |
| CCCCCCCCCCC[C@@H](C[C@@H]1OC(=O)[C@H]1CCCCCC)OC(=O)[C@@H](NC=O)[C@@H](C)CC [4 (OMDM-188), OMDM-188] | good selectivity |
| CCCCCCCCCCC[C@@H](C[C@@H]1OC(=O)[C@H]1CCCCCC)OC(=O)[C@@H](NC=O)[C@H](C)CC [Compound 5] | good selectivity |
